Drawing on ChEMBL document CHEMBL5120795, “Small-Molecule Inhibitors of Tankyrases as Prospective Therapeutics for Cancer” (J Med Chem, 2022), this text covers IC50 for one compound.

Sequences of proteins named here, by UniProt entry; tags and fusion partners are left off. A change or cut given only in a name is not applied to a line headed by its entry.
UniProt O88554: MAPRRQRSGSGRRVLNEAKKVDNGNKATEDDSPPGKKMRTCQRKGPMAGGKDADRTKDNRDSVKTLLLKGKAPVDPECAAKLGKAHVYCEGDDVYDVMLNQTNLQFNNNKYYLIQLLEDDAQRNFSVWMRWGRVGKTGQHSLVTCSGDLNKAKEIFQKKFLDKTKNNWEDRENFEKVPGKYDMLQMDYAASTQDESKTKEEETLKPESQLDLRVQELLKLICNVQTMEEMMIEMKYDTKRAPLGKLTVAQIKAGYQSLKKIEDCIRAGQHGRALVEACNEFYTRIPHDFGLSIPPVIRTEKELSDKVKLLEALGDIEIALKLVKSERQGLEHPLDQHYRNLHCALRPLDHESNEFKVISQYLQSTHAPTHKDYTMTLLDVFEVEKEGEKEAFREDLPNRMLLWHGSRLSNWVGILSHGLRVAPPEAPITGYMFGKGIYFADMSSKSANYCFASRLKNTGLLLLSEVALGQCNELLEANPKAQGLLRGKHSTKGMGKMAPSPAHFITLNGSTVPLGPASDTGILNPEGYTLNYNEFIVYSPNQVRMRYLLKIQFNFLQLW

The assay concerns the target Poly [ADP-ribose] polymerase 2 (Mus musculus, UniProt O88554).

pIC50: −log10 of the molar value.

For the compound `O=c1[nH]nc2c3c(cccc13)N=C(CN1Cc3ccccc3C1)N2` [2X-121], the pIC50 was 9.00.

One may read the pIC50 as −log10 of the IC50, conventionally taken in molar units. Higher therefore signals a small IC50.
